Our source for the IC50 values is doi:10.1101/2020.09.15.275891v2 (biorxiv, 2020).

The IC50 is the concentration that inhibits the measured activity by half.

The target of this assay is mature SARSCoV2 M^pro (Severe acute respiratory syndrome coronavirus 2, UniProt P0DTD1). Kind of assay: biochemical.

The compound `CCCC[C@H](NC(=O)[C@@H]1[C@@H]2[C@H](CN1C(=O)[C@@H](NC(=O)NC1(CS(=O)(=O)C(C)(C)C)CCCCC1)C(C)(C)C)C2(C)C)C(=O)C(=O)NC1CC1` [narlaprevir] showed an IC50 greater than 20 µM.
